Assay results published in EP0549264A1, “Purified para-nitrobenzyl esterase from bacillus” (OKLAHOMA STATE UNIVERSITY, priority 1991, dated 1993).

Biological target: T1, PNB esterase (Bacillus subtilis, UniProt P37967)
T1 construct: A culture of Bacillus subtilis NRRL B-8079 was harvested and frozen by conventional methods; made in house; host or cells: Bacillus subtilis NRRL B-8079 (natural producer; enzyme purified from cell-free extract)
T1 sequence (P37967 1-489): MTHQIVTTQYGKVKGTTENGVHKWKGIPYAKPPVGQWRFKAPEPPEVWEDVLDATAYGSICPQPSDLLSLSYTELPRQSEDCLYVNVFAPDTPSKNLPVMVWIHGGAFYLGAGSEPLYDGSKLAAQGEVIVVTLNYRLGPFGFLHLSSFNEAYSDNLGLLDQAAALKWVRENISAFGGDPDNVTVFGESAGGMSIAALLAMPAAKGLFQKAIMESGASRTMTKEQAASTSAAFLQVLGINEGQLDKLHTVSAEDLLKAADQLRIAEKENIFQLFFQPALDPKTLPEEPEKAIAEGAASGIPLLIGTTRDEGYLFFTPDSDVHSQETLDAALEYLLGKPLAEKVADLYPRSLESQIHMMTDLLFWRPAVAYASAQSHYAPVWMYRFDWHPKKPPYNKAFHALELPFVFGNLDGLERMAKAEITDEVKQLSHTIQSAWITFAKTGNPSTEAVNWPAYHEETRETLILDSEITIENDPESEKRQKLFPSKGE
Assay: PNB esterase activity assay (HPLC, method of Example 1D), effect of inhibitors
Assay type: biochemical

With `O=S(=O)(F)Cc1ccccc1` [Phenylmethylsulfonylfluoride] the “Inhibition (%)” value was 100%.
